In the supplement of paper PMC4206461:
Only a part is listed here, and it is no random draw.

What follows are compounds tested on Pseudomonas aeruginosa PA14 wild type (assay: respiration area under curve with compound as sole nitrogen source, 24 h (OmniLog AUC (arbitrary units)); higher = more respiration / better utilisation as nitrogen source, active = 2000 or more). Details: plate: PM8.
Method: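 Biolog Phenotype MicroArray plates PM6-PM8: each di/tripeptide is the sole nitrogen source (IF-0 medium with succinate/ferric citrate and dye mix A). Tetrazolium reduction was read in the OmniLog every 15 min for 24 h at 37°C and summarised as area under the respiration curve (arbitrary units). The paper counts values below 2000 as no respiration and above 8000 as solid respiration. Replicate datasets are averaged. Lys/His/Cys peptides are excluded because the paper states they reduce the dye without growth.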

| Structure (SMILES) | respiration area under curve |
| --- | --- |
| CC(C)C[C@H](N)C(=O)N[C@@H](Cc1ccc(O)cc1)C(=O)O | active: 8090 |
